# From US6414005B1, “Heterocyclic compounds having nos inhibitory activities” (Chugai Seiyaku Kabushiki Kaisha, priority 1997, dated 2002)
# Target: T1, eNOS (type 3) (Bos taurus, UniProt P29473)
# T1 construct: Cow pulmonary arterial endothelium cells (CPAE) were cultured in a MEM medium containing 20% FBS; endogenous in cells; host or cells: CPAE (cow pulmonary arterial endothelium cells), detergent extract, 100,000 x g supernatant
# Assay: NOS activity, conversion of L-[3H]arginine to L-[3H]citrulline, crude enzyme of eNOS
# Assay type: biochemical
# Settings: crude enzyme from cow pulmonary arterial endothelium cells (CPAE); 100 nM L-[3H]arginine, 37° C., 10 min
smiles,measurement,value
"N=C(NCCC[C@H](N)C(=O)O)N[N+](=O)[O-] [L-NA, N^G-nitro-L-arginine]",IC50,68.2 nM
